High-throughput results (PubChem)
Shown are actives, neighbours in structure and some others; about 1.5% of the full set was active somewhere.
PABP FP inh: blocks human PABP binding to poly(A) RNA; calls only at 35 µM; fluorescence polarization; 1% of 290,000 active; P11940;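 note: calls also rest on retests at 20 µM and on dose response follow-up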
MLLE-PAM2 inh: blocks PAM2 peptide binding to the PABP1 MLLE domain; 0.36% of 360,000 active; GST-MLLE / FITC-PAM2 fluorescence polarization; inhibition, % at 20 µM; in the data active = inhibition above about 35%, passing the limit was not always enough;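 note: plate controls were DMSO wells with GST-MLLE for no effect and wells lacking GST-MLLE protein for full effect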
eIF4H FP inh: inhibitors of RNA binding by human eIF4H; Q15056; eIF4H fluorescence polarization binding assay; inhibition, % at 35 µM; 0.94% of 290,000 active;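 note: calls also rest on retests at 20 µM and on dose response follow-up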
Pemphigus Ab inh: human desmoglein-3 autoantibody binding inhibition; P32926; DSG3-coupled beads, scFv-anti-DSG3-GFP binding, flow cytometry; active compounds read low; binding (percent of control), % at 10 µM; 0.48% of 310,000 active; AID 588358;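 active = binding more than 3 SD below its plate's average and above zero; inconclusive = below that plate limit but binding exactly zero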;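 note: hits lower antibody fragment binding to DSG3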
UUG fidelity: modulators of start codon recognition fidelity in yeast; AID 602363; activity score, % at 18.7 µM; S. cerevisiae UUG-firefly luciferase reporter, luminescence/redox ratio; 0.13% of 350,000 active;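 active = replicate mean at a twofold rise or more, about +100% in these data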;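 note: firefly luciferase made from a UUG start codon reports start codon fidelity; reporter light over untreated wells divided by growth signal over untreated wells; some hits fall short of that in this replicate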
The depositor's hits bear a star; i = inactive; ? = inconclusive; · = not tested or not shown; + = active, no number. Unless noted, the rule behind the calls is not given here.

Keys – A = PABP FP inh; B = MLLE-PAM2 inh; C = eIF4H FP inh; D = Pemphigus Ab inh; E = UUG fidelity
COc1ccc(NC(=S)Nc2cccc3cnccc23)cc1
  A: +	B: 19.9	C: 56.6	D: 98.6	E: -16.2
CCOc1ccc(NC(=S)Nc2cccc3cnccc23)cc1
  A: i	B: 36.5	C: 16.5	D: 123.9	E: -23.8
Cc1[nH]c2ccccc2c1/C=C/C(=O)c1ccncc1
  A: +	B: -75.1	C: 72.1*	D: 113.3	E: ·
O=C(CSc1ncnc2ccccc12)Nc1ccc2c(c1)OCCO2
  A: i	B: 16.6	C: -2.8	D: 105.0	E: ·
O=C(CSc1nc(Cc2ccccc2)nc2ccccc12)Nc1ccc2c(c1)OCCO2
  A: i	B: 37.8*	C: 4.6	D: 101.9	E: -16.0
CC(C)c1nc(SCC(=O)Nc2ccc(N3CCOCC3)cc2)c2ccccc2n1
  A: i	B: 45.1*	C: -1.2	D: 103.3	E: -15.6
O=C(CSc1ncnc2ccccc12)NCc1ccc2c(c1)OCO2
  A: i	B: -9.7	C: active	D: ·	E: ·
COc1cc2c(cc1NC(=O)c1ccc(C)c([N+](=O)[O-])c1)oc1ccccc12
  A: i	B: -15.2	C: active	D: 98.6	E: -4.0
COc1cc2c(cc1NC(=O)c1cccc([N+](=O)[O-])c1)oc1ccccc12
  A: i	B: 11.6	C: 5.4	D: 105.2	E: ·
O=C(Nc1c(-c2ccccc2)nc2ccc(Cl)cn12)c1cccs1
  A: +	B: -10.8	C: 50.6*	D: 99.3	E: -21.4
CCOC(=O)CNc1c(-c2ccccc2)nc2ccc(Cl)cn12
  A: i	B: -4.7	C: -10.3	D: ·	E: -30.0
CC(=O)Nc1c(-c2ccccc2)nc2ccc(Cl)cn12
  A: ·	B: 2.1	C: ·	D: 109.5	E: -20.7
CCOC(=O)CNc1c(-c2ccc(O)cc2)nc2ccc(Cl)cn12
  A: +	B: -12.4	C: 79.5*	D: 99.9	E: -32.2
CC(C)NC(=O)Nc1ccc2c(c1)CC(=O)N([C@H](C)CO)C[C@H](C)[C@@H](CN(C)Cc1ccc(Cl)c(Cl)c1)O2
  A: ·	B: ·	C: ·	D: ·	E: 5.9
O=C(NC(=S)Nc1ccc(Oc2ccccc2)cc1)c1ccc(Cl)cc1
  A: i	B: 40.6*	C: -1.4	D: 86.6	E: -16.2

Exported field by field: 4 of the compounds above
> O=C(CSc1nc(Cc2ccccc2)nc2ccccc12)Nc1ccc2c(c1)OCCO2
- PABP FP inh: i
- MLLE-PAM2 inh: 37.8*
- eIF4H FP inh: 4.6
- Pemphigus Ab inh: 101.9
- UUG fidelity: -16.0
> CC(C)c1nc(SCC(=O)Nc2ccc(N3CCOCC3)cc2)c2ccccc2n1
- PABP FP inh: i
- MLLE-PAM2 inh: 45.1*
- eIF4H FP inh: -1.2
- Pemphigus Ab inh: 103.3
- UUG fidelity: -15.6
> O=C(CSc1ncnc2ccccc12)NCc1ccc2c(c1)OCO2
- PABP FP inh: i
- MLLE-PAM2 inh: -9.7
- eIF4H FP inh: active
- Pemphigus Ab inh: ·
- UUG fidelity: ·
> COc1cc2c(cc1NC(=O)c1ccc(C)c([N+](=O)[O-])c1)oc1ccccc12
- PABP FP inh: i
- MLLE-PAM2 inh: -15.2
- eIF4H FP inh: active
- Pemphigus Ab inh: 98.6
- UUG fidelity: -4.0

Next part.
Keys – A = PABP FP inh; B = MLLE-PAM2 inh; C = eIF4H FP inh; D = Pemphigus Ab inh; E = UUG fidelity
Cc1cc(SCC(=O)Nc2ccc3[nH]c(=O)[nH]c3c2)nc2ccccc12
  A: ·	B: -0.9	C: ·	D: 75.8*	E: -18.0
COc1cccc(-c2ccc3c(c2)[C@H]2[C@H](CCN2C(=O)C2CCC2)[C@H](CO)N3)c1
  A: ·	B: ·	C: ·	D: ·	E: -19.7
Cc1noc(C)c1NC(=O)Nc1cccc2c1O[C@H](CN(C)S(C)(=O)=O)[C@H](C)CN([C@@H](C)CO)C2=O
  A: ·	B: ·	C: ·	D: ·	E: -6.9
CC(C)CC(=O)NC(=S)NNC(=O)c1ccc(NC(=O)C2CCCCC2)cc1
  A: +	B: 1.4	C: 61.1*	D: 98.5	E: ·
O=Cc1c(NC2CCCCC2)c2ccccc2[nH]c1=O
  A: i	B: 3.1	C: -5.9	D: 74.3*	E: -7.3
O=Cc1c(NCc2ccc(F)cc2)c2ccccc2[nH]c1=O
  A: i	B: 12.0	C: -0.4	D: 102.9	E: -21.5
C[C@H]1CN([C@@H](C)CO)C(=O)Cc2cc(NS(C)(=O)=O)ccc2O[C@H]1CN(C)C(=O)NC1CCCCC1
  A: ·	B: ·	C: ·	D: ·	E: -10.9
N#Cc1c(-c2ccccc2Cl)noc1/C=C/Nc1ccc(C(=O)O)cc1
  A: +	B: -10.8	C: 51.8*	D: 96.6	E: ·
Nc1ccc(Nc2ccccc2)c(S(=O)(=O)O)c1
  A: +	B: -5.8	C: 95.2*	D: 94.9	E: -9.1
Cc1ccc(Nc2ccc(N)cc2S(=O)(=O)O)cc1
  A: i	B: 8.4	C: 19.1	D: 99.5	E: -12.0
CC(C)NC(=O)N(C)C[C@@H]1Oc2c(cccc2N(C)C)C(=O)N([C@H](C)CO)C[C@H]1C
  A: ·	B: ·	C: ·	D: ·	E: 9.0
COc1cccc(C#Cc2cnc3c(c2)C(=O)N([C@@H](C)CO)C[C@H](C)[C@@H](CN(C)C(=O)C2CC2)O3)c1
  A: ·	B: ·	C: ·	D: ·	E: 14.9
CCOC(=O)c1ccc(COc2ccc(C(C)C)cc2)o1
  A: i	B: 7.0	C: -3.3	D: 116.2	E: ·
CCOc1ccc(OCc2ccc(C(=O)OCc3ccccn3)o2)cc1
  A: i	B: 5.1	C: 5.7	D: 40.2*	E: -16.2
C[C@@H]1CN([C@@H](C)CO)C(=O)c2cc(C#Cc3ccc(F)cc3)cnc2O[C@H]1CN(C)S(C)(=O)=O
  A: ·	B: ·	C: ·	D: ·	E: -13.4
O=C(NC[C@@H]1[C@H](c2ccccc2)[C@H](CO)N1Cc1ccccn1)C1CCCC1
  A: ·	B: ·	C: ·	D: ·	E: -22.2
Cc1cc(=O)oc2cc(OCc3ccc(C(=O)OCC(=O)NC4CCS(=O)(=O)C4)cc3)ccc12 (configuration not stated)
  A: +	B: 0.7	C: 98.9*	D: 70.2*	E: ·
Cc1cc(=O)oc2cc(OCc3ccc(C(=O)OCC(=O)N(C)C4CCS(=O)(=O)C4)cc3)ccc12 (configuration not stated)
  A: i	B: 8.8	C: 14.8	D: 104.1	E: -9.7
C[C@@H]1CN([C@@H](C)CO)C(=O)c2cccc(NC(=O)NC3CCCCC3)c2O[C@@H]1CN(C)C
  A: ·	B: ·	C: ·	D: ·	E: -7.5
COC(=O)c1ccc(/C=C(\C#N)c2nc3ccccc3s2)cc1
  A: +	B: -11.6	C: ?	D: 100.2	E: ·
Cc1ccccc1Cn1ccc(NC(=O)c2cc3ncc(Br)cn3n2)n1
  A: i	B: -2.3	C: 53.0*	D: 90.2	E: ·
CCN(c1c(C)n(C)n(-c2ccccc2)c1=O)S(C)(=O)=O
  A: i	B: 52.0*	C: 6.6	D: ?	E: -7.1
COc1ccc(NC(=O)Nc2ccc3c(c2)C(=O)N([C@H](C)CO)C[C@H](C)[C@@H](CN(C)C(=O)Nc2cccc4ccccc24)OCCCC[C@@H](C)O3)cc1
  A: ·	B: ·	C: ·	D: ·	E: -9.5
COc1ccc(CCNC(=O)CCC(=O)N2CCOc3ccc(C)cc32)cc1OC
  A: i	B: -14.3	C: -2.1	D: 90.4	E: -4.4
COc1ccc(OC)c(CCNC(=O)CCC(=O)N2CCOc3ccc(C)cc32)c1
  A: i	B: 11.4	C: -8.2	D: 68.0*	E: 2.6
O=[N+]([O-])c1cccc(NC(=S)Nc2nc(-c3ccccc3Cl)cs2)c1
  A: i	B: 42.4*	C: 13.6	D: 106.6	E: -21.0
CCNC(=S)Nc1cccc([N+](=O)[O-])c1
  A: i	B: ·	C: 2.0	D: ·	E: ·
Cc1ccc(-c2ccc3c(c2)O[C@@H](CN(C)Cc2ccc(F)cc2)[C@H](C)CN([C@@H](C)CO)S3(=O)=O)cc1
  A: ·	B: ·	C: ·	D: ·	E: 9.0
COc1ccc(NC(=O)CSc2ccccc2)cn1
  A: i	B: 41.8*	C: 37.5	D: 102.6	E: -3.0
COc1ccc(C(=O)NC(=S)Nc2ccc3c4c(cccc24)CC3)cc1OC
  A: +	B: 12.1	C: 12.1*	D: 100.8	E: -8.6
Cc1c(C(=O)NC(=S)Nc2ccc3c4c(cccc24)CC3)cccc1[N+](=O)[O-]
  A: i	B: 41.6*	C: 26.3	D: ?	E: -3.6
Cc1c(C(=O)Nc2ccc3c4c(cccc24)CC3)cccc1[N+](=O)[O-]
  A: i	B: 8.9	C: 7.6	D: 104.1	E: -16.5
CCOC(=O)c1cc(-c2ccc(OC)cc2)nc2c1c(C)nn2CCC(N)=S
  A: i	B: 34.6*	C: -3.5	D: 101.4	E: -8.0
CCOC(=O)c1cc(-c2ccco2)nc2c1c(C)nn2-c1ccccc1
  A: i	B: -1.6	C: 36.1	D: 93.2	E: -18.5
CCOC(=O)Cc1c[nH]c(=S)[nH]c1=O
  A: i	B: 39.9*	C: -3.1	D: 91.8	E: ·
C[C@@H]1CN([C@@H](C)CO)S(=O)(=O)c2ccc(C3=CCCC3)cc2O[C@H]1CN(C)C(=O)c1cnccn1
  A: ·	B: ·	C: ·	D: ·	E: -6.3
CN(C)c1ccc(/C=C/c2ccc3ccccc3n2)cc1
  A: i	B: -18.4	C: 108.8	D: 107.3	E: -88.3
CCCN(CCC)c1ccc(/C=C/c2ccc3cc(OCC)ccc3n2)cc1
  A: +	B: -94.7	C: ?	D: 119.3	E: -2.5
NS(=O)(=O)c1ccc(NC(=O)C2Cc3ccccc3CN2C(=O)c2ccco2)cc1 (configuration not stated)
  A: +	B: 12.9	C: 70.2*	D: 93.2	E: -10.4
